In PMC8474606 (Brain, Behavior, & Immunity - Health, 2020):

System: BMECs
Assay: Transport study in BMECs
Conditions: 3 h after DPHM treatment (30 μM)

Concentration of DPHM in the basolateral compartment, LPS serum vs control serum: Significantly higher concentrations
Structure (SMILES): CN(C)CCOC(c1ccccc1)c1ccccc1 [DPHM, 2-(diphenylmethoxy)-N,N-dimethylethylamine]
